Test results published in BindingDB's records for PubMed 8301592 (Washington University, 1994).

Amino acid sequences for entries named in this document (tags omitted).
UniProt P21917, whole entry: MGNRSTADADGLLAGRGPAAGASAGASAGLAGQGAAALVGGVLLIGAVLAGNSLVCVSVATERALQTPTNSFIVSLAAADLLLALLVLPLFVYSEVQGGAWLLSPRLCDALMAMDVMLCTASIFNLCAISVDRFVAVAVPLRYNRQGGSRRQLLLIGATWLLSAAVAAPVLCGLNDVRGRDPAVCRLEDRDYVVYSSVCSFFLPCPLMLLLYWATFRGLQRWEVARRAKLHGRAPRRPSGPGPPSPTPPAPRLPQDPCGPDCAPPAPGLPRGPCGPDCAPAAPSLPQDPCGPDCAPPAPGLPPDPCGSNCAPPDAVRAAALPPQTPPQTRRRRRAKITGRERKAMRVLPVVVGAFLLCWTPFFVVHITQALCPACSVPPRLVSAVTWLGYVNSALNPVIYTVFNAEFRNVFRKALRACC
UniProt P19020, whole entry: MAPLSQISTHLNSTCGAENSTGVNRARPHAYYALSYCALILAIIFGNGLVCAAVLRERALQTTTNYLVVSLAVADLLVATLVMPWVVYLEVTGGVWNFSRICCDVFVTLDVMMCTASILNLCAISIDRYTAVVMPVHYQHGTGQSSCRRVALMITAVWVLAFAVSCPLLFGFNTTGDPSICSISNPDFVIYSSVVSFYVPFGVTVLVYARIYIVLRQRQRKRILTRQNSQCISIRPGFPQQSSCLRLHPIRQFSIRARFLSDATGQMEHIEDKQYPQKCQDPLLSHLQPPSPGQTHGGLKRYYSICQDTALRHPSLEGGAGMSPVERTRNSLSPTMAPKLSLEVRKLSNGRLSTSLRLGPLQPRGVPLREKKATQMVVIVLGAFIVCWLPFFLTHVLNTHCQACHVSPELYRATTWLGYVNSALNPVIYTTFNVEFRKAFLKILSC

Legend:
D(4) dopamine receptor = D(4) dopamine receptor (Homo sapiens, UniProt P21917); details: Ki (nM)
D(3) dopamine receptor = D(3) dopamine receptor (Rattus norvegicus, UniProt P19020)

Row | Ki (D(4) dopamine receptor) | Ki (D(3) dopamine receptor) | Compound
1 | 21.5 nM and 20 nM | – | CCN1CCCC1CNC(=O)c1cc(S(N)(=O)=O)ccc1OC (configuration not stated) [N-[(1-ethylpyrrolidin-2-yl)methyl]-2-methoxy-5-sulfamoylbenzamide]
2 | – | 0.06 nM and 0.05 nM | CNc1cc(OC)c(C(=O)N[C@H]2CCN(Cc3ccccc3)[C@H]2C)cc1Cl [Nemonapride]

Values joined by “and” are separate entries in the source; they are usually repeats but may differ in a detail not shown here. Equal values may be shown once.
